Reference: patent publication US10300155B2, “Alpha-synuclein ligands” (Washington University, priority 2015, dated 2019)

The chains behind the UniProt entries cited, without tags or fusion partners. Residues count along the entry.
UniProt P10636, 560-692: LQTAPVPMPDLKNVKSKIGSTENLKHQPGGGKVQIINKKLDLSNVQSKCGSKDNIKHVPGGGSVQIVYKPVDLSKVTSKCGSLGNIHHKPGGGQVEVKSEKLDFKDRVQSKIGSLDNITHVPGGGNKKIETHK
UniProt P05067, 672-713 limits assumed: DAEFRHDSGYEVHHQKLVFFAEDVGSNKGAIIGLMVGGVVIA

What was measured:
tau fibrils = tau fibrils (Homo sapiens, UniProt P10636); settings: read-out: affinity constant (Kd) of ThioT for tau fibrils; 1 μM fibrils, 2 h at 37° C.
Aβ fibrils = Aβ fibrils (Homo sapiens, UniProt P05067); settings: read-out: affinity constant (Kd) of ThioT for Aβ fibrils; 1 μM fibrils, 2 h at 37° C.

What does the source list for `Cc1ccc2c(c1)sc(-c1ccc(N(C)C)cc1)[n+]2C` [ThT, Thioflavin T]?
Kd (tau fibrils): 2700 nM; Kd (Aβ fibrils): 32 nM
